# System: rhesus monkeys
# Experiment: Adverse effects of maraviroc treatment: intact side nigrostriatum and drug related side effects
# Assay type: in vivo
# Description: Female rhesus monkeys (6-8 years old; 5-7 kg) were used in this study. All animals were singly housed with a 12-h light/dark cycle. Purine monkey chow and water were available ad libitum. Diets were supplemented with fruit during the testing sessions. The study was performed in accordance with federal guidelines of proper animal care and with the approval of the IACUC. Monkeys were intoxicated with MPTP according to protocol described previously (12-16). Briefly, animals were tranquilized with ketamine (10 mg/kg, i.m.) and then maintained on an anesthetic plane with isoflurane (1-2%). The animals were put in the supine position. For each injection, a right-sided incision was made along the medial edge of the sternocleidomastoid muscle. The carotid sheath was opened and the common carotid artery, internal jugular vein, and vagus nerves were identified. The common carotid was exposed below the carotid bifurcation. The external carotid artery was then ligated. A 27 gauge butterfly needle was inserted into the common carotid artery in a direction retrograde to blood flow; for each injection, 20 ml of saline containing 3 mg of MPTP-HCl (Sigma) was infused at a rate of 1.33 ml/min (15 min). After the infusion was completed, 3 ml of saline was delivered, and then the incision was closed. […]
substance,measurement,setting,value
maraviroc,"drug related side effect (hair loss, untoward infection, hyperkinesia, psychological disturbance, vomiting, diarrhea)","during maraviroc treatment, oral 1 mg/kg body wt/d",did not observe any drug related side effect
same,"change in nigral dopaminergic neurons, striatal TH fiber density and striatal neurotransmitters in the intact side","intact side, after 30 d of maraviroc treatment",did not see any significant change

# Reference: patent US12239637B2, “Compositions and methods for treating neurological disorders” (priority 2018, dated 2025)
